Literature values in US20140088058A1 (PARTHENOGEN SAGL, priority 2011, published 2014).

Conditions: in vivo

Substance: LH: Luteinising Hormone released by the pituitary gland
- half-life: about 2 hours

Substance: hCG: human Chorionic Gonadotrophin, placental hormone with structure similar to LH
- half-life: ~72 h
